Assays:
Assay in all cases: Kinase profiling in a biochemical assay panel (mobility shift assays and ELISA), %-inhibition at 1 μM; selectivity entropy
[1] = molecular target: panel of more than 300 wild-type and mutant kinases (313 kinase panel) (Homo sapiens, UniProt O60674); details: 1 µM
[2] = molecular target: panel of more than 300 wild-type and mutant kinases (313 kinase panel) (Homo sapiens, UniProt P53778); details: 1 µM
[3] = molecular target: panel of more than 300 wild-type and mutant kinases (313 kinase panel) (Homo sapiens, UniProt Q14289); details: 1 µM
[4] = molecular target: panel of more than 300 wild-type and mutant kinases (313 kinase panel) (Homo sapiens, UniProt P07333); details: 1 µM
[5] = molecular target: panel of more than 300 wild-type and mutant kinases (313 kinase panel) (Homo sapiens, UniProt P41279); details: 1 µM
[6] = molecular target: panel of more than 300 wild-type and mutant kinases (313 kinase panel) (Homo sapiens, UniProt P14616); details: 1 µM
[7] = molecular target: panel of more than 300 wild-type and mutant kinases (313 kinase panel) (Homo sapiens, UniProt P45984); details: 1 µM
[8] = molecular target: panel of more than 300 wild-type and mutant kinases (313 kinase panel) (Homo sapiens, UniProt O14733); details: 1 µM
[9] = molecular target: panel of more than 300 wild-type and mutant kinases (313 kinase panel) (Homo sapiens, UniProt Q96GD4); details: 1 µM
[10] = molecular target: panel of more than 300 wild-type and mutant kinases (313 kinase panel) (Homo sapiens, UniProt P22455, V550L); details: 1 µM
[11] = molecular target: panel of more than 300 wild-type and mutant kinases (313 kinase panel) (Homo sapiens, UniProt Q9H422); details: 1 µM
[12] = molecular target: panel of more than 300 wild-type and mutant kinases (313 kinase panel) (Homo sapiens, UniProt O14920); details: 1 µM
[13] = molecular target: panel of more than 300 wild-type and mutant kinases (313 kinase panel) (Homo sapiens, UniProt Q9HBH9); details: 1 µM
[14] = molecular target: panel of more than 300 wild-type and mutant kinases (313 kinase panel) (Homo sapiens, UniProt O15530); details: 1 µM
[15] = molecular target: panel of more than 300 wild-type and mutant kinases (313 kinase panel) (Homo sapiens, UniProt Q13627)
[16] = molecular target: panel of more than 300 wild-type and mutant kinases (313 kinase panel) (Homo sapiens, UniProt P51957); details: 1 µM
[17] = molecular target: panel of more than 300 wild-type and mutant kinases (313 kinase panel) (Homo sapiens, UniProt P00519, E255K); details: 1 µM
[18] = molecular target: panel of more than 300 wild-type and mutant kinases (313 kinase panel) (Homo sapiens, UniProt P17252); details: 1 µM
[19] = molecular target: panel of more than 300 wild-type and mutant kinases (313 kinase panel) (Homo sapiens, UniProt P54760); details: 1 µM
[20] = molecular target: panel of more than 300 wild-type and mutant kinases (313 kinase panel) (Homo sapiens, UniProt P15056, V600E); details: 1 µM
[21] = molecular target: panel of more than 300 wild-type and mutant kinases (313 kinase panel) (Homo sapiens, UniProt Q9UKE5); details: 1 µM
[22] = molecular target: panel of more than 300 wild-type and mutant kinases (313 kinase panel) (Homo sapiens, UniProt Q12852); details: 1 µM
[23] = molecular target: panel of more than 300 wild-type and mutant kinases (313 kinase panel) (Homo sapiens, UniProt Q13470); details: 1 µM

COc1cc2ncnc(Nc3ccc(F)c(Cl)c3)c2cc1OCCCN1CCOCC1 [gefitinib]
%-inhibition of JAK2 [1]: 5%
%-inhibition of p38γ [2]: 2.65%
%-inhibition of PYK2 [3]: 1.35%

C[C@@H]1CCN(C(=O)CC#N)C[C@@H]1N(C)c1ncnc2[nH]ccc12 [tofacitinib]
%-inhibition of FMS [4]: 6%
%-inhibition of COT [5]: 6%
%-inhibition of IRR [6]: -4%
%-inhibition of JNK2 [7]: -3.47%
%-inhibition of MAP2K7 [8]: 3%
%-inhibition, AurB [9]: -5.3%
%-inhibition of FGFR4(V550L) [10]: 2%
%-inhibition of HIPK3 [11]: -7.6%
%-inhibition of IKKβ [12]: -4%
%-inhibition of MNK2 [13]: 3.71%
%-inhibition of PDK1 [14]: -5.71%
%-inhibition of DYRK1A [15]: -12%
%-inhibition of NEK4 [16]: -5.68%
%-inhibition, ABL(E255K) [17]: -3.76%
%-inhibition of PKCα [18]: 11%
%-inhibition of EPHB4 [19]: -2.47%
%-inhibition, BRAF(V600E) [20]: 1.08%
%-inhibition of TNIK [21]: -1.89%
%-inhibition of DLK [22]: -24%
%-inhibition of TNK1 [23]: 88%
